One-dose inflammasome screen (PubChem AID 2061109, Seoul National University)
system: mouse macrophages from bone marrow, LPS + nigericin (NLRP3)
compound dose: 5 µM
value: % inhibition of cell death (propidium iodide), 0 = stimulated, 100 = untreated, floor at 0
*: called active, above 70% Part of the library is listed.

Cc1nc2cc(F)c(F)cc2n1-c1cncc(Nc2ccc(C(F)(F)F)cc2)n1
- inhibition: 0.0%

COc1c2c(cc3c1OCO3)CCN(C)C2
- inhibition: 44.1%

O=c1cc(-c2ccc(O)cc2)oc2c([C@@H]3O[C@H](CO)[C@@H](O)[C@H](O)[C@H]3O)c(O)cc(O)c12
- inhibition: 35.6%

C[C@@H]1Cc2c([nH]c3ccccc23)[C@@H](c2c(F)cc(/C=C/C(=O)O)cc2F)N1CC(C)(C)F
- inhibition: 0.0%

CN1CCN(c2ccc(Nc3ncc4c(n3)SC(=Cc3ccc([N+](=O)[O-])cc3)C(=O)N4)cc2)CC1
- inhibition: 72.4*%

COc1cc(O)c2c(c1)O[C@H](c1cc(O)cc(O)c1)CC2=O
- inhibition: 31.2%

CN1CC[C@@H](COC(=O)Nc2ccccc2-c2ccc(F)c(Cl)c2)C1
- inhibition: 63.1%

CC(C)(C)c1ccc(S(=O)(=O)Nc2ccc(-n3ccnc3)cc2)cc1
- inhibition: 13.4%

NS(=O)(=O)c1ccc(-n2nc(CCCNC(=O)Nc3ccc(C(F)(F)F)cc3)cc2-c2ccccc2)cc1
- inhibition: 29.9%

O=C(C1CC1)N1CCN(Cn2sc3ccccc3c2=O)CC1
- inhibition: 91.5*%

COc1ccc(C2=NC(c3ccc(Cl)cc3)C(c3ccc(Cl)cc3)N2C(=O)N2CCNC(=O)C2)c(OC(C)C)c1
- inhibition: 10.8%

COc1ccc2cc([C@H](C)C(=O)O)ccc2c1
- inhibition: 0.0%

Cc1cc(S(C)(=O)=O)c(S(C)(=O)=O)cc1C(=O)N=C(N)N
- inhibition: 0.0%

CNc1nc(Nc2cn(C(C)(C)C#N)nc2C)ncc1C(F)(F)F
- inhibition: 43.1%

Cl.Cl.O=C(NCCCNc1nc(Nc2cccc(CN3CCOCC3)c2)ncc1C1CC1)C1CCC1
- inhibition: 0.0%

C[C@@H]1O[C@@H](OC[C@H]2O[C@@H](OCCc3ccc(O)c(O)c3)[C@H](O)[C@@H](O[C@@H]3O[C@@H](C)[C@H](O)[C@@H](O)[C@H]3O)[C@@H]2OC(=O)/C=C/c2ccc(O)c(O)c2)[C@H](O)[C@H](O)[C@H]1O
- inhibition: 55.9%

O=C1C(=Nc2cccc(C(F)(F)F)c2)c2ccccc2N1c1ccccc1
- inhibition: 14.8%

COc1ccccc1NC(=O)NCc1ccc(C(=O)NO)cc1
- inhibition: 41.7%

Cc1onc(-c2c(Cl)cccc2Cl)c1CNc1cccc(C(=O)c2cn(CCCC(=O)O)c3ccccc23)c1
- inhibition: 0.0%

OC[C@H]1O[C@@H](Oc2c[nH]c3ccccc23)[C@H](O)[C@@H](O)[C@@H]1O
- inhibition: 23.7%

Cn1c(=O)c2c3c(ccc2c2ccc4cc5c(cc4c21)OCO5)OCO3
- inhibition: 32.3%

CCCCCCCCCCCCCCCCCCCCCC(=O)Nc1ccn([C@@H]2O[C@H](CO)[C@@H](O)[C@@H]2O)c(=O)n1
- inhibition: 42.8%

NS(=O)(=O)c1ccc(Cc2c(-c3cccc(-c4ccccc4)c3)nn(-c3nc(C(=O)O)cs3)c2CC2CC2)cc1
- inhibition: 79.6*%

Nc1nc2c(c(=O)[nH]1)C[C@@H](CCc1ccc(C(=O)N[C@@H](CCC(=O)O)C(=O)O)cc1)CN2
- inhibition: 0.0%

O=C(CNC(=O)c1cccc2ccccc12)Nc1ccccc1Oc1ccccc1
- inhibition: 82.7*%

Cl.Fc1ccc2c(CCNCc3cccc(OCC(F)(F)C(F)F)c3)c[nH]c2c1
- inhibition: 43.0%

NS(=O)(=O)c1nn2cc(-c3ccccc3)nc2s1
- inhibition: 0.0%

Cc1c(F)cccc1NC(=O)Nc1ccc(Cl)c(S(=O)(=O)[C@H]2CCCNC2)c1O
- inhibition: 76.6*%

CCOC(=O)C1=C(COCCN)NC(C)=C(C(=O)OC)C1c1ccccc1Cl
- inhibition: 13.6%

O=[N+]([O-])c1ccc(CNc2nc(NCc3cccc(C(F)(F)F)c3)nc3nc[nH]c23)cc1
- inhibition: 8.0%

Cc1cc(Nc2nn(-c3ccccc3)c(=O)c3ccccc23)n[nH]1
- inhibition: 0.0%

CC[C@H](C)[C@H](NC(=O)[C@H](Cc1ccc(O)cc1)NC(=O)[C@@H](NC(=O)[C@H](CCCN=C(N)N)NC(=O)[C@@H](N)CC(=O)O)C(C)C)C(=O)N[C@@H](Cc1cnc[nH]1)C(=O)N1CCC[C@H]1C(=O)O
- inhibition: 20.6%

CN1CCc2cc(Nc3ncc(C4CC4)c(NCCCNC(=O)C4CCC4)n3)ccc2C1.Cl.Cl
- inhibition: 0.0%

C[C@@H]1O[C@@H](Oc2cc(O)c3c(=O)c(O)c(-c4ccc(O)cc4)oc3c2O)[C@H](O)[C@H](O[C@@H]2O[C@H](CO)[C@@H](O)[C@H](O)[C@H]2O)[C@H]1O
- inhibition: 0.0%

CS(=N)(=O)CC[C@H](N)C(=O)O
- inhibition: 72.1*%

COc1cc(O)c(CC=C(C)C)c(O)c1C(=O)/C=C/c1ccc(O)cc1
- inhibition: 55.2%

CCOc1cc(-c2nncn2C)ccc1Nc1ncc2cc(C)nc(NCC(C)(C)C)c2n1
- inhibition: 0.0%

CC(CCN1CCN(c2ccc(F)cc2)CC1)NC(=O)c1cccnc1
- inhibition: 0.0%

CC(=O)O.CC(=O)O.CCC(C)CC(C)CCCCCCCCC(=O)N[C@H]1C[C@@H](O)[C@@H](NCCN)NC(=O)[C@@H]2[C@@H](O)CCN2C(=O)[C@H]([C@H](O)CCN)NC(=O)[C@H]([C@H](O)[C@@H](O)c2ccc(O)cc2)NC(=O)[C@@H]2C[C@@H](O)CN2C(=O)[C@H]([C@@H](C)O)NC1=O
- inhibition: 30.5%

Cc1ccc(NC(=O)[C@H]2CCCN(C(=O)c3c(C)cccc3F)[C@H]2c2ccc(NC3CCCC3)cc2)cc1C(F)(F)F
- inhibition: 38.7%

Cc1ccccc1C(=O)N1CCc2cc(-c3nc(NC(=O)Cc4ccc5c(c4)OCO5)sc3C)ccc21
- inhibition: 26.3%

Cc1cc2c(C(N)=O)cccc2n1-c1nc2c(c(NCc3ccccc3)n1)COCC2
- inhibition: 0.0%

COc1cc(NC(=O)Cc2cccc(-n3c(=O)c4c(C)onc4c4c(Cl)cccc43)c2)cc(OC)c1OC
- inhibition: 0.0%

Repeating the first 3 entries:

{"compound": "Cc1nc2cc(F)c(F)cc2n1-c1cncc(Nc2ccc(C(F)(F)F)cc2)n1", "inhibition (%)": "0.0"}
{"compound": "COc1c2c(cc3c1OCO3)CCN(C)C2", "inhibition (%)": "44.1"}
{"compound": "O=c1cc(-c2ccc(O)cc2)oc2c([C@@H]3O[C@H](CO)[C@@H](O)[C@H](O)[C@H]3O)c(O)cc(O)c12", "inhibition (%)": "35.6"}